Protein sequences, listed by entry. Tags and fused reporters are not part of them.
UniProt P03952, whole entry, looked up: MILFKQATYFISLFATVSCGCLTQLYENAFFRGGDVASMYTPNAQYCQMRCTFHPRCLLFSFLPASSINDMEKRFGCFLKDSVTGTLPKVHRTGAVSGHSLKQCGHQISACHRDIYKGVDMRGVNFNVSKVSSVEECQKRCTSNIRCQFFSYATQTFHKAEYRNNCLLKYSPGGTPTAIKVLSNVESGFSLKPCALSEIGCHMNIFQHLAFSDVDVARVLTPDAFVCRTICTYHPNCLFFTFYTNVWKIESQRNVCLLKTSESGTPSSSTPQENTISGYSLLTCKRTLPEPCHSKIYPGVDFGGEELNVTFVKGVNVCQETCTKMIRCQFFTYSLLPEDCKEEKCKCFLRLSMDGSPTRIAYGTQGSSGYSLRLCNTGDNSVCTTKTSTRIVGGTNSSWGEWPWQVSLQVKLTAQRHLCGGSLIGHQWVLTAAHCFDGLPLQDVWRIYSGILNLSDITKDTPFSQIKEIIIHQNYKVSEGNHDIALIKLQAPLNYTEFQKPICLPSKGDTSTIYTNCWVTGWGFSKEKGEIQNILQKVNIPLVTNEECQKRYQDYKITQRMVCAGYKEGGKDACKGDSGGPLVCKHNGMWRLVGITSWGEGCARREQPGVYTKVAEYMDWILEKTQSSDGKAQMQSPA

The test addresses human plasma kallikrein (Homo sapiens (Human), UniProt P03952). The following applies: human plasma kallikrein 25 pM, substrate 0.5 uM, 1 hour pre-incubation at room temperature, read at t=60 min.
Turning to `Cc1cc(N)nc(C)c1CNC(=O)c1cnn(Cc2ccc(C(=O)NC(C)C)cc2)c1` [Example 120, N-((6-amino-2,4-dimethylpyridin-3-yl)methyl)-1-(4-(isopropylcarbamoyl)benzyl)-1H-pyrazole-4-carboxamide], the IC50 (in general, the midpoint of a concentration-inhibition curve) amounted to 223 nM.

With `Cc1cc(N)nc(C)c1CNC(=O)c1coc(Nc2ccccc2)n1` [Example 20, N-((6-amino-2,4-dimethylpyridin-3-yl)methyl)-2-(phenylamino)oxazole-4-carboxamide], inhibition was half-maximal at 7400 nM (IC50).

`Cc1cc(N)nc(C)c1CNC(=O)c1cn(Cc2ccc3ccc(Cl)cc3n2)nn1` [Example 158, N-((6-amino-2,4-dimethylpyridin-3-yl)methyl)-1-((7-chloroquinolin-2-yl)methyl)-1H-1,2,3-triazole-4-carboxamide]: it took 4 nM to reach half-maximal inhibition (IC50).

In turn, `Cc1cc(N)nc(C)c1CNC(=O)c1ccc(Cn2ccc3ccccc3c2=O)o1` [Example 1, N-((6-amino-2,4-dimethylpyridin-3-yl)methyl)-5-((1-oxoisoquinolin-2(1H)-yl)methyl)furan-2-carboxamide] registered an IC50 of 810 nM. Compared with the last compound, the IC50 is about 200-fold higher.

In the case of `Cc1cc(N)nc(C)c1CNC(=O)c1cnn(Cc2ccc3ccc(Cl)cc3n2)c1` [Example 157, N-((6-amino-2,4-dimethylpyridin-3-yl)methyl)-1-((7-chloroquinolin-2-yl)methyl)-1H-pyrazole-4-carboxamide], the midpoint of inhibition, the IC50, lay at 2 nM.

`COc1ccc(Cn2cc(C(=O)NCc3c(C)cc(N)nc3C)cn2)cc1` [Example 13, N-((6-amino-2,4-dimethylpyridin-3-yl)methyl)-1-(4-methoxybenzyl)-1H-pyrazole-4-carboxamide]: the IC50 was 150 nM.

`Cc1ccc2cc(Cn3cc(C(=O)NCc4c(C)cc(N)nc4C)nn3)cnc2c1` [Example 156, N-((6-amino-2,4-dimethylpyridin-3-yl)methyl)-1-((7-methylquinolin-3-yl)methyl)-1H-1,2,3-triazole-4-carboxamide] yielded an IC50 of 0.92 nM. Against the preceding compound, the IC50 is about 160-fold lower.

As for `Cc1ccc2cc(Cn3cc(C(=O)NC4(c5c(C)cc(N)nc5C)CC4)nn3)ccc2n1` [Example 164, N-((6-Amino-2,4-dimethylpyridin-3-yl)cyclopropyl)-1-((2-methylquinolin-6-yl)methyl)-1H-1,2,3-triazole-4-carboxamide], the 50% inhibitory concentration (IC50) came to 1200 nM.

As to `Cc1cc(N)nc(C)c1CNC(=O)c1cnn(Cc2ccc3c(c2)nc(C)n3C)c1` [Example 165, N-((6-Amino-2,4-dimethylpyridin-3-yl)methyl)-1-((1,2-dimethyl-1H-benzo[d]imidazol-5-yl)methyl)-1H-pyrazole-4-carboxamide], half-maximal inhibition (IC50) was put at 6 nM.

In turn, `Cc1cc(N)nc(C)c1CNC(=O)c1cc(Cn2ccc3ccccc3c2=O)oc1C` [Example 79, N-((6-amino-2,4-dimethylpyridin-3-yl)methyl)-2-methyl-5-((1-oxoisoquinolin-2(1H)-yl)methyl)furan-3-carboxamide] had a half-maximal inhibitory concentration (IC50) of 166 nM.

Values taken from patent publication US9290485B2, “N-((6-amino-pyridin-3-yl)methyl)-heteroaryl-carboxamides” (NOVARTIS AG, priority 2010, dated 2016).
